Data on one compound can be found in patent US10295551B2, “Development and use of fluorescent probes of unbound bilirubin” (Alan Marc Kleinfeld, priority 2011, dated 2019).

By UniProt entry, the sequences of proteins in these tests, tags left out. Chains listed by the source or under a name are the forms on record and can include a tag or linker. Residues count along the entry.
UniProt P02693, 3-129 with tags or gaps with the stated changes limits assumed: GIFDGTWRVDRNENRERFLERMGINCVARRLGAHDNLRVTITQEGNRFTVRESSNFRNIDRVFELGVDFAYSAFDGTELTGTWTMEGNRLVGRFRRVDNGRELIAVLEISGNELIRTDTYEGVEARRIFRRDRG

For this assay, the target named is BL22P1B11 (SEQ ID NO: 35) (Rattus norvegicus, UniProt P02693, A74F/K101R/K126R/K17R/K21R/K28A/K30R/K38R/K47R/K51R/K89R/K8R/K93R/K95R/L39V/L73A/M19L/Q116R/R107L/V26C/V61R/Y118D/Y15R). As to the kind of experiment: Kds for binding BL22P1B11 (bilirubin and fatty acids). As to conditions: ligand binding to acrylodan labeled BL22P1B11.

The structures appear in SMILES notation.

For the compound `CCCCCCCC/C=C\CCCCCCCC(=O)O` [Oleate 18:1 (n-9), Oleate], the dissociation constant Kd stood at 2510 nM.

For orientation: Kd means a measure of binding affinity in units of concentration.
